Test [1] has as its target Cannabinoid receptor 1 (Homo sapiens) (UniProt P21554). The conditions noted are these: HEK293.
The next test deals with Cannabinoid receptor 2 (Homo sapiens, UniProt P34972). In words: Displacement of [3H]-CP-55940 from human recombinant CB2 receptor expressed in HEK293 cells after 90 mins by Competition binding assay. It is filed as cell-based. (Displacement assays read how much labelled ligand stays bound in the presence of the test substance.)
For another test, the species on record is Homo sapiens. In words: Selectivity index, ratio of Ki for recombinant human CB1 receptor to Ki for recombinant human CB2 receptor.

Amino acid sequences for entries named in this document (tags omitted).
UniProt P21554, whole entry: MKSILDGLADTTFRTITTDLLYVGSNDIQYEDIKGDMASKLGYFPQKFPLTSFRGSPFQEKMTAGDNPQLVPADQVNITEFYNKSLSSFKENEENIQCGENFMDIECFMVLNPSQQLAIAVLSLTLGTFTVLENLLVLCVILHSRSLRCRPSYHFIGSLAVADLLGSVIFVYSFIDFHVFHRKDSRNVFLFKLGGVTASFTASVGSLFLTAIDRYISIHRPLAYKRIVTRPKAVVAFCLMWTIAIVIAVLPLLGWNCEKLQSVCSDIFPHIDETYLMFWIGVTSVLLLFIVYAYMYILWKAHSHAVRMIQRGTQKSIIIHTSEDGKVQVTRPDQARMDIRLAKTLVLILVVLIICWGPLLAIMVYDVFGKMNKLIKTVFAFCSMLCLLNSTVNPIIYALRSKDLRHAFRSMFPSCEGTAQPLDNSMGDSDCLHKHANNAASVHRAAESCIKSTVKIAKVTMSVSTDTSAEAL
UniProt P34972, whole entry: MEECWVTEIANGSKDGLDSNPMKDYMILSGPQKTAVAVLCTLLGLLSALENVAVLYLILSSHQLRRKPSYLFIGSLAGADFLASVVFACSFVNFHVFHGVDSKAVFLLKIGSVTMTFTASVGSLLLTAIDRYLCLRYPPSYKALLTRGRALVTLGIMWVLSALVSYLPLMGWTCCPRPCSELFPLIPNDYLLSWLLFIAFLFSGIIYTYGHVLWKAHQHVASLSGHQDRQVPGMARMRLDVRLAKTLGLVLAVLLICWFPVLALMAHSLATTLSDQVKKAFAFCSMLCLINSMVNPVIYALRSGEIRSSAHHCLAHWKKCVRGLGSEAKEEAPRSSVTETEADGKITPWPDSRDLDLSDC

The structures appear in SMILES notation.

Consider `CCCCCn1cc(C(=O)NC23CC4CC(CC(C4)C2)C3)c(=O)c2cc(C(C)C)c(F)cc21`, for which the Kieq was above 10000 nM in test [1] and 7.5 nM on Cannabinoid receptor 2. For the same molecule, the Ratio Ki in the test listed under Homo sapiens was above 1300.
For `CCCCCn1c(=O)c(C(=O)NC23CC4CC(CC(C4)C2)C3)cc2cc(C(C)C)ccc21`, in that order: 11 nM, 0.26 nM and 42.
For `CCCCCn1cc(C(=O)NC23CC4CC(CC(C4)C2)C3)c(=O)c2cc(C(C)C)ccc21`, in that order: 1220 nM, 6.3 nM and 194.
Consider `CCCCCn1c(=O)c(C(=O)NC23CC4CC(CC(C4)C2)C3)c(O)c2ccccc21`, for which the figures for the Kieq (in test [1]; at Cannabinoid receptor 2) were 108 nM and 0.97 nM, respectively. Moreover, the Ratio Ki in the test listed under Homo sapiens came to 112.
In the case of `CCCCCn1c2c(c(O)c(C(=O)NC34CC5CC(CC(C5)C3)C4)c1=O)CCCC2`, the Kieq in test [1] was determined as 8.7 nM; at Cannabinoid receptor 2, 0.37 nM. The Ratio Ki in the test filed under Homo sapiens was determined as 24.

The values are drawn from ChEMBL document CHEMBL3779817, “Investigations on the 4-Quinolone-3-carboxylic Acid Motif. 7. Synthesis and Pharmacological Evaluation of 4-Quinolone-3-carboxamides and 4-Hydroxy-2-quinolone-3-carboxamides as High Affinity Cannabinoid Receptor 2 (CB2R) Ligands with Improved Aqueous Solubility” (J Med Chem, 2016).
